Laboratory results: US8133695B2, “Fluorescence polarization hERG assay” (priority 2008, dated 2012)
Where two headings read alike, the source gives them in different places.

Protein sequences, listed by entry. Tags and fused reporters are not part of them. Lines headed by an entry give the natural chain unless they say otherwise; changes in a name come on top.
UniProt Q12809: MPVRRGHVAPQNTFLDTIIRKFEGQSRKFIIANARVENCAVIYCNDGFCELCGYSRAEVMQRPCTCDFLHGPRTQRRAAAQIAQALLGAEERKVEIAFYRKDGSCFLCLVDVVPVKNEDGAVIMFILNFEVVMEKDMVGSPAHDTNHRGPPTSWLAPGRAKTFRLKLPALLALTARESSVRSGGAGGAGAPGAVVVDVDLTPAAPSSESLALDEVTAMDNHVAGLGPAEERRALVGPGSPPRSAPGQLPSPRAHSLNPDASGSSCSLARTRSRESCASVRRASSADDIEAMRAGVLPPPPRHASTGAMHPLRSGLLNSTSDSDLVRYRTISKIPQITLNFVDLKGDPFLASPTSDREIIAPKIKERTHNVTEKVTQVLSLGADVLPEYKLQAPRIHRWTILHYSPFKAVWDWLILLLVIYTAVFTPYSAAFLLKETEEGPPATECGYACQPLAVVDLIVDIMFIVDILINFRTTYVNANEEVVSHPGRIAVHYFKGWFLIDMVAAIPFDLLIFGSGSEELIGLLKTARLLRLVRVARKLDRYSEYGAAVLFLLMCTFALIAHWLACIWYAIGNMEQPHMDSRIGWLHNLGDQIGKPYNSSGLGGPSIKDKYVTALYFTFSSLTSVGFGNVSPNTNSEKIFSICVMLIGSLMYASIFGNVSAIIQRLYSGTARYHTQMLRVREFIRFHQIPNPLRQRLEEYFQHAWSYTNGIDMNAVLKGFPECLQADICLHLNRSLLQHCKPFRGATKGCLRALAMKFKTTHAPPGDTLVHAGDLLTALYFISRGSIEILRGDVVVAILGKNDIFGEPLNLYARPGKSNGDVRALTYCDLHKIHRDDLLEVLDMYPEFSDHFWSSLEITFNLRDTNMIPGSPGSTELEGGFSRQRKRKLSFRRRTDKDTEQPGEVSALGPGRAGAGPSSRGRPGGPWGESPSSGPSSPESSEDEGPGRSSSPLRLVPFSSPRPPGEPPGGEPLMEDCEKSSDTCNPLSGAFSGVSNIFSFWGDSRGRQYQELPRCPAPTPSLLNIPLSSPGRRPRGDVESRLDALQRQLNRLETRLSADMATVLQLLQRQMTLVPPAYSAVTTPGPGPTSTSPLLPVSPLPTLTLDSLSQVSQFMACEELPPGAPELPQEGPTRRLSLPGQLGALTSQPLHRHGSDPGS

Key:
hERG K+ channel [1] = target: T1, hERG K+ channel (Homo sapiens, UniProt Q12809); conditions: literature radioligand displacement values; cited from earlier work
hERG K+ channel [2] = target: T1, hERG K+ channel; assay: biochemical

In the case of `CC(C)COCC(CN(Cc1ccccc1)c1ccccc1)N1CCCC1` (centres unmarked) [Bepridil], the IC50 (hERG K+ channel [1]) is listed as 170 to 450 nM and the IC50 (hERG K+ channel [2]) is listed as 279 nM.
